Each structure is given as a SMILES string.

For the test, the system named is intracellular amastigotes of L. (L.) infantum chagasi. The test can be described thus: Replication of intracellular amastigotes in infected peritoneal macrophages (phagocytic index). The class given is cell-based, Leishmania (L.) infantum chagasi. The following applies: macrophage CC50 / intracellular amastigote EC50.

Regarding `Nc1ncnc2c(C3N[C@H](CO)[C@@H](O)[C@H]3O)c[nH]c12` (some centres unmarked) [IA], the “Selectivity index (CC50 value/ EC50 value)” value was 377.

Turning to `O=c1[nH]cnc2c(CNC(CO)CO)c[nH]c12` [SMIH], the “Selectivity index (CC50 value/ EC50 value)” value is on record as 113.

The values are drawn from PMC4409337, “Immucillins Impair Leishmania (L.) infantum chagasi and Leishmania (L.) amazonensis Multiplication In Vitro” (PLoS ONE, 2015).
